Earlier results in article PMC5584065 (Biochemical pharmacology, 2015).

Details: after a single therapeutic dose; cited from earlier work

CC(=O)Nc1ccc(O)cc1 [acetaminophen]
typical maximum plasma concentrations: 5–20 mg/L and 33–132 µM

Values joined by “and” are separate entries in the source; they are usually repeats but may differ in a detail not shown here. Equal values may be shown once.
